This is an account of results in patent US6759420B1, “Arylalkanoyl derivatives, processes for their preparation, their use and pharmaceutical compositions containing them” (Aventis Pharma Deutschland GmbH, priority 1999, dated 2004).

Chains of the proteins cited; added tags and fusions are not shown. Residues count along the entry.
UniProt P00742, 41-179 limits assumed: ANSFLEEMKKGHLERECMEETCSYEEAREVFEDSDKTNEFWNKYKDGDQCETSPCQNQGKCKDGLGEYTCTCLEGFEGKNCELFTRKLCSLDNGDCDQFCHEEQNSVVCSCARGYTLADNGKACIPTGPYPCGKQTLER
UniProt P00742, 235-488 limits assumed: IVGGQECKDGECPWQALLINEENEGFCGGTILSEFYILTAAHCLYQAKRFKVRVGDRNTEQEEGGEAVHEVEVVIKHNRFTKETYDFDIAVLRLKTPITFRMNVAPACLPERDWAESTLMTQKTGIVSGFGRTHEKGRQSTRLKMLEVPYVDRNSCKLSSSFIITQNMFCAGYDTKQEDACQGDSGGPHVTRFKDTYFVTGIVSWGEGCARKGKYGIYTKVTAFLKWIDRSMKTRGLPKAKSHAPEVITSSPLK

In the assay the target is factor Xa (Homo sapiens, UniProt P00742). Put plainly: Factor Xa assay (Test 1a), chromogenic. Conditions: read-out: Ki (Xa); in vitro factor Xa assay Test 1a; human factor Xa 0.5 nM, substrate S-2765 140 μM, 25° C.; Ki from IC50 corrected for substrate competition; tested form: trifluoroacetic acid salt. The text has this: The ability of a compound of formula (I) to inhibit factor Xa, thrombin, plasmin, elastase, and trypsin may be assessed by determining the concentration of compound of formula (I) that inhibits enzyme activity by 50% (IC50). Purified enzymes are used in chromogenic assays. To determine the inhibition constant, the IC50 value is corrected for competition with substrate using the formula:
Ki=IC50×(1/{1+((substrate concentration)/substrate Km)})
where Km is the Michaelis-Menten constant. Y. -C. Chen and W. H. Prusoff, Biochem. Pharmacol. 22: […] (1973), which is incorporated herein by reference.
TBS-PEG buffer (50 mM Tris-Cl, pH 7.8, 200 mM NaCl, 0.05% (w/v) PEG-8000, 0.02% (w/v) NaN3) is used for this assay. […]
The assays are performed by pre-incubating the compound of formula (I) plus enzyme for 10 min, then the assay is initiated by adding substrate to obtain a final volume of 100 μl. The initial velocity of chromogenic substrate hydrolysis is measured by the change in absorbance at 405 nm using a Bio-tek Instruments kinetic plate reader (Ceres UV900HDi) at 25° C. during the linear portion of the time course (usually 1.5 min after addition of substrate). […]

A word on the Ki: it is a measure of affinity in units of concentration, obtained from inhibition or displacement. On to `CCC(=N)N1CCC(CNC(=O)[C@@H](NC(=O)C(Cc2ccc(C(=N)N)cc2)c2cccc(C(F)(F)F)c2)C2CCCCC2)CC1` (single isomer, unassigned) [262], for which the Ki was 19 nM.
Then `CCC(=N)N1CCC(CNC(=O)[C@@H](NC(=O)C(Cc2ccc(C(=N)N)cc2)c2cccc(C(F)(F)F)c2)C2CCCCC2)CC1` (single isomer, unassigned) [263], with 25 nM.
